Results from patent US9783536B2, “Nitrogen-containing heterocyclic compound or salt thereof” (FUJIFILM Corporation, priority 2013, dated 2017).

The chains behind the UniProt entries cited, without tags or fusion partners.
UniProt P42336, whole entry: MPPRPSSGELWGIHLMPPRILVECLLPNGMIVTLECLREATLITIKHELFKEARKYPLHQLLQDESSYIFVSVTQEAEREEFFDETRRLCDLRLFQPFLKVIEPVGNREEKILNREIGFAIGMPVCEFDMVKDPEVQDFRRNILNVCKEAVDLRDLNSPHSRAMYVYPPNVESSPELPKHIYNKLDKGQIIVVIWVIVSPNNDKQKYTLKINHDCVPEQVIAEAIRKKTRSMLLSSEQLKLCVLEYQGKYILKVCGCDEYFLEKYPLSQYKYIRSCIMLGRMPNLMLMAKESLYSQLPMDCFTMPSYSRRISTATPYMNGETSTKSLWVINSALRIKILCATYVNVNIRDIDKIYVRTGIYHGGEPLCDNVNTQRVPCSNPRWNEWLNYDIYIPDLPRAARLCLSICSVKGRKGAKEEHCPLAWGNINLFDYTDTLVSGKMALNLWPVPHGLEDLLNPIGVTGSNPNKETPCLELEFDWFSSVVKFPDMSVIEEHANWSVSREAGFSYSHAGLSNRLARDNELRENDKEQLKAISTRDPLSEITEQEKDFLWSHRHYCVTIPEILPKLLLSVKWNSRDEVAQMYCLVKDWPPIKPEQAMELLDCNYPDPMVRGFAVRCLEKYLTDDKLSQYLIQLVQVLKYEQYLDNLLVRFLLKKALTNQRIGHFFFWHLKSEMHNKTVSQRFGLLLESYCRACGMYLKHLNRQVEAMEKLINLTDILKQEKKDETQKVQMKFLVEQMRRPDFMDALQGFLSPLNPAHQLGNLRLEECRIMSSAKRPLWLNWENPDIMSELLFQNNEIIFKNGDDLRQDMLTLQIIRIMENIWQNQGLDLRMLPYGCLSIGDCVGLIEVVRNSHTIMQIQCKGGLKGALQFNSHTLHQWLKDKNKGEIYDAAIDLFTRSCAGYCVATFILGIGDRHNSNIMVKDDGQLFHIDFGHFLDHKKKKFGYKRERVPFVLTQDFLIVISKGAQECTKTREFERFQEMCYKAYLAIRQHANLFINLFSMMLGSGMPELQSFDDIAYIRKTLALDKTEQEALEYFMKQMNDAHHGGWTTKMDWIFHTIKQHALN
UniProt P28482, whole entry: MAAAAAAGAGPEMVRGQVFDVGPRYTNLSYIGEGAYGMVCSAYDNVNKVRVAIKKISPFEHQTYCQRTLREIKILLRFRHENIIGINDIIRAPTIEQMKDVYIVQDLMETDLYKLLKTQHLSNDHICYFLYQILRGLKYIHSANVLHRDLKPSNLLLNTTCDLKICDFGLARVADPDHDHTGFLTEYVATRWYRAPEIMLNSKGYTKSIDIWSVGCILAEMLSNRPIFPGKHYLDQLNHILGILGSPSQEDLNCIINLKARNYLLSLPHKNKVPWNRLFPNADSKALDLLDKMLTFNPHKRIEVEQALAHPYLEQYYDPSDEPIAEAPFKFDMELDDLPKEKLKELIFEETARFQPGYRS
UniProt P27986, whole entry partner: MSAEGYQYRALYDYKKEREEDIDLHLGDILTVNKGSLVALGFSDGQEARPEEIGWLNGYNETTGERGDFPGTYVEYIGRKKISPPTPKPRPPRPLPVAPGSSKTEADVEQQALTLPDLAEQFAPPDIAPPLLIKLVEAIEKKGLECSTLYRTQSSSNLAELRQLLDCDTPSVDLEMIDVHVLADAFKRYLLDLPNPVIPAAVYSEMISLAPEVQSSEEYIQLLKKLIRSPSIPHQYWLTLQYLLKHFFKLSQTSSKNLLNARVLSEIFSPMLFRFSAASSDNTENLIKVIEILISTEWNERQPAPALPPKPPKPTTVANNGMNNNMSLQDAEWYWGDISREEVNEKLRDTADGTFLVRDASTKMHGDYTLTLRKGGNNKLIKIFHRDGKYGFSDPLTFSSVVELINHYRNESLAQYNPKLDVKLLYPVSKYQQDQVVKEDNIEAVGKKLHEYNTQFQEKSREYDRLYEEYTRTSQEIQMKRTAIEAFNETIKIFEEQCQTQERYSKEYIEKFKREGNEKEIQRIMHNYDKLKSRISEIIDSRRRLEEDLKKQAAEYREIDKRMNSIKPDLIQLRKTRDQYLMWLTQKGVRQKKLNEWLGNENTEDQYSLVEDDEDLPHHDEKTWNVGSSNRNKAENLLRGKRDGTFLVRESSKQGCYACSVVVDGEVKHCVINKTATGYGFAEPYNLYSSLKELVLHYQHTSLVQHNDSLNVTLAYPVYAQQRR

What was measured:
human PI3Kα protein = human PI3Kα protein (Homo sapiens, UniProt P42336); test: PI3Kα enzyme assay (ADP-Glo); conditions: read-out: PI3Kα enzyme inhibitory activity
Protocol: In a PI3Kα enzyme assay, a product (manufactured by Carna Biosciences, Inc.) obtained by biotinylating a human PI3Kα protein produced by using a baculovirus expression system was used. In addition, in the detection of enzyme activity, ADP-GLO KINASE ASSAY (trade name, manufactured by PROMEGA Corporation) was used.
10 μL of a reaction liquid (4.5 nmol/L PI3Kα, 40 mmol/L Tris-HCl, 20 mmol/L MgCl2, 0.1% BSA, pH 7.5) including the human PI3Kα protein and a test compound having a predetermined concentration was allowed to stand at room temperature for 15 minutes. Then, 5 μL of a mixture liquid of L-α-phosphatidylinositol 4,5-diphosphate (PIP2) (manufactured by Sigma-Aldrich Co. LLC.) and ATP (manufactured by Sigma-Aldrich Co. LLC.), which are substrates, was added thereto such that final concentrations thereof became 50 μmol/L and 100 μmol/L, respectively, and an enzyme reaction was performed by allowing to stand at 25° C. for 60 minutes.
After the reaction, the enzyme reaction was stopped by adding 15 μL of an ADP-GLO REAGENT (trade name, manufactured by PROMEGA Corporation) thereto and allowing to stand at room temperature for 60 minutes. Then, 30 μL of a KINASE DETECTION REAGENT (trade name, manufactured by PROMEGA Corporation) was added thereto, followed by allowing to stand at room temperature for 40 minutes, and ADP produced by the enzyme reaction was quantified by emission intensity.
ENVISION (trade name, manufactured by Perkin Elmer Inc.) was used for the measurement of the emission intensity.
(§1) The inhibitory activities of the compounds were evaluated using IC50 (50% inhibitory concentration). The IC50 was calculated using XLFIT (trade name, manufactured by ID Business Solutions).

[1] = target: GST fusion human ERK2 protein (Homo sapiens, UniProt P28482); test: ERK2 enzyme assay (2); conditions: read-out: ERK2 enzyme inhibitory activity (2)
Protocol: In an ERK2 enzyme assay, GLUTATHIONE S-TRANSFERASE (GST) FUSION HUMAN ERK2 PROTEIN (manufactured by Carna Biosciences, Inc.), which was produced by using an E. coli expression system, was used.
12 μL of a reaction liquid (1.25 nmol/L ERK2, 100 mmol/L Hepes, 10 mmol/L MgCl2, 1.5 mmol/L DTT, 0.003% Brij35, pH 7.5) including ERK2 protein and a test compound having a predetermined concentration was allowed to stand at room temperature for 15 minutes. Then, 3 μL of a mixture liquid of FL-PEPTIDE8 (5-FAM-IPTSPITTTYFFFKKK-COOH) (manufactured by Caliper Life Sciences), which is substrate peptide, and ATP (manufactured by Sigma-Aldrich Co. LLC.) was added thereto such that the final concentrations thereof became 4.25 μmol/L and 1 mmol/L, respectively, and an enzyme reaction was performed by allowing to stand at 25° C. for 120 minutes.
After the reaction, the enzyme reaction was stopped by adding 30 μL of a reaction stopper liquid (100 mmol/L HEPES, 11.2 mmol/L EDTA, 5.6% Brij35, pH 7.5) including a 0.5% COATING REAGENT 8 (trade name, manufactured by Perkin Elmer Inc.) thereto. Then, phosphorylated peptide and non-phosphorylated peptide were separated using LABCHIP EZ READER (trade name, manufactured by Caliper Life Sciences), and the porportion of the phosphorylated peptide was quantified.
as §1

SMILES | IC50 (human PI3Kα protein) [nM] | IC50 [1] [nM]
CC(C)c1cnnc(Nc2ccc3ncc(-c4cn(C)nc4COc4ccccn4)cc3n2)c1 | < 1000 | < 1000
CC(C)c1cnnc(Nc2ccc3ncc(-c4cn(C)nc4NC4CN(C(=O)OC(C)(C)C)C4)cc3n2)c1 | < 1000 | < 1000
CC(C)c1cnnc(Nc2ccc3ncc(-c4cn(C)nc4COc4ccncc4)cc3n2)c1 | 1000 to 10000 | < 1000
